## Yeast mating assay B: variants of the scFv Ab-14

The measurements come from Li et al. 2023 (doi:10.1038/s41467-023-39022-2) through the FLAb antibody collection.

Target peptide (SARS-CoV-2 spike, HR2 region): PDVDLGDISGINAS

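The variants were designed computationally from a first round of random CDR variants and then made and measured. Group labels follow the data file (Ctrl: baseline library sampled from a position-specific scoring matrix, with some repeated check sequences; Rand: our label for a block that the file lists under HC and that is probably the random mutants of the ten best first-round binders; En: ensemble of fine-tuned language models; GP: Gaussian process model; GPLM: also part of the Gaussian process libraries; HC: hill climbing; Gen: genetic algorithm; Gibbs: Gibbs sampling; a sequence that several methods proposed may carry one label only). The assay is AlphaSeq: two haploid yeast populations carry antibody and antigen on their surface. After mating in shaken culture at 30 °C for 16 h, diploids were selected and their barcode pairs sequenced. A regression on co-assayed BCL2-family reference pairs converts the normalised counts of each replicate to an apparent Kd. The assay was run in six technical replicates.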

Parent scFv Ab-14: VH joined to VL by a 15-residue (Gly4Ser)3 linker. Changes lie in the heavy chain CDRs alone.
VH: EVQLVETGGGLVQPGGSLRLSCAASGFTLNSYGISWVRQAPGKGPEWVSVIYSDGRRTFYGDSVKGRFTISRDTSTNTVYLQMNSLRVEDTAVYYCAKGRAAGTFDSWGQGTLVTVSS
VL: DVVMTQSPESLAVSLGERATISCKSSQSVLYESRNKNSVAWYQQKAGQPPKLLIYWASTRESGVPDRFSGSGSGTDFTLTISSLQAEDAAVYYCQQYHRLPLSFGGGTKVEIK

The parent's heavy chain CDRs are GFTLNSYGIS, VIYSDGRRTFYGDSVK, GRAAGTFDS; each variant's own CDRs replace them letter for letter. The read-out is the apparent dissociation constant on a log10 scale (nM): the lower, the stronger. Averages over replicates are reported, and they cover detected replicates only. "not detected" marks a missing value. The strain was present, yet no cells mated with the target were sequenced in any replicate, which points to weak or no binding. The authors averaged sequences with at least three values out of six and counted those with two or fewer as poor binders. Three control strains display no target. For all heavy chain designs, 1% of the pairings with them gave a signal, with a median of 2.08 and one signal in twenty below 0.84, so weak values seen in few replicates may be background. Values of this round are not directly comparable with the first-round values of the same sequences.

CDR-H1 | CDR-H2 | CDR-H3 | group | mean, log10 nM | detected
GFTLNEYGIS | VIYSDGRRTFYGWSVK | GRAAVTFDQ | GPLM_HC | not detected | 0 of 6
GFDLNSYGIS | VIYSDGRRTFYADGVK | GKAAGTFDV | GP_Gibbs | 1.15 | 6 of 6
GFTLNSYGIS | VIYSDGRRTFYSDAVK | GEAAGTFDS | GPLM_Gen | 0.68 | 6 of 6
GFDLNEYGIS | VIYADGMRTAYSDAVK | GNVAGTFDV | En_Gen | -0.54 | 6 of 6
GFHLNSYGIS | VIYSDGRRTFYHDSVK | GKTAGTFDS | GP_Gen | 1.08 | 6 of 6
GFTLNEYGIS | VIYSDGRRTFYTDMVK | GRFAGTFDS | GP_HC | 0.88 | 1 of 6
HFDLNSYGIS | VIYSDGRRTFYGDSVK | GKAAGTFDV | GP_Gibbs | 1.23 | 4 of 6
GFDLNEYGIS | VIYADGRRTFYIDSVK | GEAAGTFDL | En_HC | -0.41 | 6 of 6
GFSLNWYGIS | VIYSDGRRTAYIDSVK | GRAAGTFDS | GP_HC | 1.64 | 5 of 6
GFTLNSYGIS | VIYSDGKRTFYGDSVK | GRNATTFDS | Ctrl | not detected | 0 of 6
GESLDSYGIS | VIYADGMRTSYDNSVK | GVWAGTFDM | En_Gibbs | 1.70 | 1 of 6
GFDLNSYGIS | VIYSDGMRTFYKDSVK | GRAAGTFDS | GP_Gibbs | 0.31 | 6 of 6
GFELNSYGIS | VIYSDGRRTFYGDRVK | GITAGTFDS | GP_Gibbs | 0.59 | 6 of 6
GFDLDEYGIS | VIYADGQRTAYADSVK | GETAGTFDL | En_Gen | 0.24 | 6 of 6
GFDLDQYGIS | VIYADGMRAGYADSVK | GHWGGKFLI | En_Gibbs | not detected | 0 of 6
GFGIEEYGIS | VIYADGVRKAYQNSFK | GEVGGTFTN | En_Gibbs | -0.67 | 6 of 6
GFTLNSYGIS | VIYSDGHRTFYDDSVK | GQLAGTFDS | GPLM_HC | 0.71 | 6 of 6
GDNLEEYGIS | VIYADGRRSSYASSVK | GAIRGTFDS | En_Gibbs | 1.77 | 1 of 6
GFELNSYGIS | VIYSDGKRTFYGDSVK | GKAAGTFDS | GP_Gen | 0.13 | 6 of 6
GFSLNEYGIS | VIYSDGRRTFYTDSVK | GQAAGTFDS | GPLM_HC | -0.17 | 6 of 6
GFNLNSYGIS | VIYSDGRRTFYADSVK | GRMAGTFDS | GPLM_Gen | 0.62 | 4 of 6
MFDLNSYGIS | VIYSDGRRTFYADSVK | GRNAGTFDS | GP_Gen | 0.08 | 6 of 6
GFTLNSYGIS | VIYSDGRRTFYHDSVK | VKAAGTIDS | Ctrl | 2.67 | 1 of 6
GFSLNSYGIS | VIYSDGRRTFYADSVK | GHAAGTFDY | GP_Gibbs | 0.76 | 6 of 6
GFDLDKYGIS | VIYADGMRKSYADAVK | GRLSGTFYI | En_Gibbs | -0.50 | 3 of 6
GFDLNEYGIS | VIYADGRRTFYIDSVK | GETAGTFDS | En_HC | -0.67 | 6 of 6
GFDLNEYGIS | VIYADGKRTAYSDSVK | GNTAGTFDQ | En_Gen | -0.41 | 6 of 6
GFDLNEYGIS | VIYADGMRTYYADSVK | GENAGTFDT | En_Gen | -0.31 | 6 of 6
GFDLDEYGIS | VIYADGVRMAYTDSVK | GNWSGRDMY | En_Gibbs | not detected | 0 of 6
GFNFDEYGIS | VIYADGVRNFYSDSVK | GYIGGFMEV | En_Gibbs | 0.80 | 2 of 6
GFTLNSYGIS | VIYSDGRRTFYGDSVK | GETAGTFDS | Ctrl | 0.36 | 6 of 6
GFTLNSYGIS | VIYSDGRRTFYGQSVK | GDAAGTFDS | Ctrl | 1.87 | 5 of 6
GFELNSYGIS | VIYSDGRRTFYGDDVK | GSTAGTFDS | GP_Gibbs | -0.22 | 6 of 6

Further variants, results first:

mean, log10 nM | detected | CDR-H1 | CDR-H2 | CDR-H3 | group
1.26 | 6 of 6 | GFDINEYGIS | VIYADGNRIAYQDQVK | GFNAGSFDI | En_Gibbs
0.04 | 6 of 6 | GFDLDEYGIS | VIYADGKRTFYADSVK | GNNAGTFDV | En_Gen
-0.59 | 6 of 6 | GFDLNEYGIS | VIYADGVRTAYIDSVK | GNVAGTFDT | En_Gen
1.69 | 1 of 6 | GDELNQYGIS | VIYSDGRRTFYGDSVK | GRAAGTFDS | Ctrl
1.73 | 2 of 6 | GFTLNSYGIS | VIYSDGRRTFYGDSVK | GRVAGTFDM | GPLM_Gen
-1.28 | 6 of 6 | GFDLNEYGIS | VIYADGKRTAYADNVK | GQTAGTFDV | En_Gen
-0.06 | 6 of 6 | GFTLNSYGIS | VIYADGRRTFYGDSVK | GKTAGTFDS | GPLM_Gen
1.45 | 1 of 6 | GFTLNSYGIS | VIYSDGRRTFYGDSVK | CEAAGTFDS | Ctrl
-0.11 | 6 of 6 | GFDLNEYGIS | VIYADGMRTYYADSVK | GQNAGTFDM | En_Gen
1.76 | 1 of 6 | GKDLQEYGVS | VIYADGKREQYAGDVK | GGLTGQFDV | En_Gibbs
2.57 | 1 of 6 | GFTIGEYGIS | VIYSDGRRTMYGDSVK | ERAAGTFDS | Ctrl
0.23 | 6 of 6 | GNTLNEYGIS | VIYSDGRRTFYHDSVK | GRTAGTFDS | GP_HC
0.12 | 6 of 6 | GFELNSYGIS | VIYSDGRRTFYADSVK | GKEAGTFDN | GP_Gibbs
0.51 | 6 of 6 | GFDLNEYGIS | VIYADGMRSYYADSVK | GNTAGTFDV | En_Gen
not detected | 0 of 6 | GFTLNQYGIS | VIMSDGRRTFYSDSVK | GRAAGFFDR | Rand
0.44 | 6 of 6 | GFSLNSYGIS | VIYSDGRRTFYDDKVK | GRTAGTFDS | GPLM_Gen
0.43 | 6 of 6 | GFNLNEYGIS | VIYADGHRSAYVDNVK | GHLGGTFSM | En_Gibbs
not detected | 0 of 6 | GNTLDEYGIS | VIYADGTRTFYIDDVK | GQMGGNGYV | En_Gibbs
-0.56 | 6 of 6 | GFDLNEYGIS | VIYADGKRTAYSDSVK | GENAGTFDI | En_Gen
1.02 | 6 of 6 | GFWLNQYGIS | VIYSDGRRTAYQDSVK | GRAAGTFDS | GP_HC
-0.28 | 6 of 6 | GFDLNEYGIS | VIYADGMRKAYADSVK | GSNAGTFDV | En_Gen
-0.83 | 6 of 6 | GFDLNEYGIS | VIYADGKRTAYADSVK | GQTAGTFDI | En_Gen
2.12 | 5 of 6 | GFGLNSYGIS | VIYSDGRRTFYVDSVK | GRNAGTFDS | GP_Gibbs
-0.53 | 6 of 6 | GFDLNEYGIS | VIYADGMRTFYADSVK | GQVAGTFDF | En_HC
0.37 | 6 of 6 | GFTLNDYGIS | VIYSDGRRTMYGDSVK | GREAGTFDS | GP_HC
not detected | 0 of 6 | GFTLNEYGIS | VIYSDGRRTFYGDSVK | GRAAGTFRQ | GP_HC
1.95 | 3 of 6 | KFTLNSYGIS | VIYSDGRRTFYDDSVK | GQLAGTFDS | GPLM_HC
0.41 | 6 of 6 | GFSLNSYGIS | VIYSDGRRTFYGDSVK | GNAAGTFDN | GPLM_Gibbs
not detected | 0 of 6 | GFTLNSYGIS | VIYADGRRTFYGDSVK | YQAAGTNKS | Rand
-0.68 | 6 of 6 | GFDLNEYGIS | VIYADGRRTAYADSVK | GENAGTFDM | En_Gen
not detected | 0 of 6 | GCTLNEGGIS | VIYSDGRRTFYGDSVK | GRAAVTFRQ | Rand
-0.04 | 6 of 6 | GFNLNEYGIS | VIYADGMRTFYTDSVK | GETAGTFDN | En_HC
-0.38 | 6 of 6 | GFSLNEYGIS | VIYSDGKRTFYGDAVK | GRTAGTFDS | GP_Gibbs
not detected | 0 of 6 | GFTLNDYGIS | VIYSDGRRTQYIDSMK | GRAAGTKDS | Rand

Repeated from above, the 11 best binders with a signal in all replicates:

CDR-H1	CDR-H2	CDR-H3	group	mean, log10 nM	detected
GFDLNEYGIS	VIYADGKRTAYADNVK	GQTAGTFDV	En_Gen	-1.28	6 of 6
GFDLNEYGIS	VIYADGKRTAYADSVK	GQTAGTFDI	En_Gen	-0.83	6 of 6
GFDLNEYGIS	VIYADGRRTAYADSVK	GENAGTFDM	En_Gen	-0.68	6 of 6
GFGIEEYGIS	VIYADGVRKAYQNSFK	GEVGGTFTN	En_Gibbs	-0.67	6 of 6
GFDLNEYGIS	VIYADGRRTFYIDSVK	GETAGTFDS	En_HC	-0.67	6 of 6
GFDLNEYGIS	VIYADGVRTAYIDSVK	GNVAGTFDT	En_Gen	-0.59	6 of 6
GFDLNEYGIS	VIYADGKRTAYSDSVK	GENAGTFDI	En_Gen	-0.56	6 of 6
GFDLNEYGIS	VIYADGMRTAYSDAVK	GNVAGTFDV	En_Gen	-0.54	6 of 6
GFDLNEYGIS	VIYADGMRTFYADSVK	GQVAGTFDF	En_HC	-0.53	6 of 6
GFDLNEYGIS	VIYADGRRTFYIDSVK	GEAAGTFDL	En_HC	-0.41	6 of 6
GFDLNEYGIS	VIYADGKRTAYSDSVK	GNTAGTFDQ	En_Gen	-0.41	6 of 6